Among the data in patent publication US20170151264A1, “COMBINATION” (Almirall, S.A., priority 2014, published 2017) are IC50 values, retold here.

The chains behind the UniProt entries cited, without tags or fusion partners. Where a name states a change or a piece, a line headed by the entry shows the natural chain unless it says otherwise.
UniProt O00329: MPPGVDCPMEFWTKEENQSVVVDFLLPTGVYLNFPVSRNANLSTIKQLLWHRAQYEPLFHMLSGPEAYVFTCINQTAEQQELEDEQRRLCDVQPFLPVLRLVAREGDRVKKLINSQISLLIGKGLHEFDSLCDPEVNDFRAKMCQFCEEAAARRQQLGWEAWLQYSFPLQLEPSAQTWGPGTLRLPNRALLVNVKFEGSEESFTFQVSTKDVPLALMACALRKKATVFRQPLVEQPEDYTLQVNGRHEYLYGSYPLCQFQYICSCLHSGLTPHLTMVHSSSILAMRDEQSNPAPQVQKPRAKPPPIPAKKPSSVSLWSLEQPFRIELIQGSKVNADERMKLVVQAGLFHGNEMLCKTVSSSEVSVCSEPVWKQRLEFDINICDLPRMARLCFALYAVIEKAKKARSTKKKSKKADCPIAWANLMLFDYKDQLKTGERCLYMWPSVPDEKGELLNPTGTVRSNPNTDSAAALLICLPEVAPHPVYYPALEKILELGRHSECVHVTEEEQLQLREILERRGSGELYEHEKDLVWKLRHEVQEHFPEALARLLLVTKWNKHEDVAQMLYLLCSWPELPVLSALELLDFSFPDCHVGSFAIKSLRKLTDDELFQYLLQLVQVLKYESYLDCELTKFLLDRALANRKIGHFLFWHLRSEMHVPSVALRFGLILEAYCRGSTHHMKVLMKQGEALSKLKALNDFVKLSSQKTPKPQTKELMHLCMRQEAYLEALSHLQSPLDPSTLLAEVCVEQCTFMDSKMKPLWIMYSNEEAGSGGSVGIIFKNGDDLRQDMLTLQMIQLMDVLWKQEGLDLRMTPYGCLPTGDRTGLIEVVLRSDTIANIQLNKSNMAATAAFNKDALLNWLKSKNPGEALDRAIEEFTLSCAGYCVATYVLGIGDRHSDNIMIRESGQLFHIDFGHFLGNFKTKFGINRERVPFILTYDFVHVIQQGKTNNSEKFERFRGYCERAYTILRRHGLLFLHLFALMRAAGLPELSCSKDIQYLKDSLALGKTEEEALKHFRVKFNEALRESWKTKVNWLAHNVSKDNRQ

The target in this assay is PI3K p110δ (Homo sapiens, UniProt O00329). The assay is described as follows: Enzymatic potency by homogenous time-resolved fluorescence. It counts as biochemical. The note with it: recombinant human isoform, pre-incubation 30 min.

`C[C@H](Nc1ncnc(N)c1C#N)c1nn2ccc(C#N)c2c(=O)n1-c1ccccc1` [LAS191954, (S)-2-(1-(6-amino-5-cyanopyrimidin-4-ylamino)ethyl)-4-oxo-3-phenyl-3,4-dihydropyrrolo[1,2-f][1,2,4]triazine-5-carbonitrile]: the IC50 (in general, the midpoint of a concentration-inhibition curve) is 2.57 nM.
